Test results as given in ChEMBL document CHEMBL1208707, “T-type calcium channel blockers: spiro-piperidine azetidines and azetidinones-optimization, design and synthesis” (Bioorg Med Chem Lett, 2010).

Species on record: Homo sapiens
Test: Protein binding in human plasma
Settings: read-out: PPB

fraction unbound: 0.001
Structure (SMILES): O=C(Nc1ccc(F)c(F)c1)N1CCC2(CC1)C(=O)N(c1ccc(F)c(Cl)c1)C2c1ccccn1 (stereo in doubt; 40a)
